Measured affinities in a library of Ab-14 light chain variants

All variants were tested on one target, the spike HR2 peptide PDVDLGDISGINAS (SARS-CoV-2).

Each scFv is VH, three GGGGS repeats, VL, as in the parent Ab-14, and differs from it in the CDRs of the light chain only.
VH: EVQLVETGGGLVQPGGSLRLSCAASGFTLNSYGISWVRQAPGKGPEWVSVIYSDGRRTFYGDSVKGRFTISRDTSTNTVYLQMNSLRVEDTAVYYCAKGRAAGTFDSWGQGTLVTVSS
VL: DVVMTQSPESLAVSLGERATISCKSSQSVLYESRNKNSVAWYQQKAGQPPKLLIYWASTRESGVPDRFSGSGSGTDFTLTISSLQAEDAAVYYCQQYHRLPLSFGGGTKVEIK

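The parent was found by panning a naive human phage display library on the peptide. These sequences belong to a second round, designed from the earlier measurements on random variants of the parent. Group labels follow the data file (Ctrl: baseline library sampled from a position-specific scoring matrix, with some repeated check sequences; GP: Gaussian process model; GPLM: also part of the Gaussian process libraries; HC: hill climbing; Gen: genetic algorithm; Gibbs: Gibbs sampling; a sequence that several methods proposed may carry one label only). Affinity was read by AlphaSeq, a pooled yeast mating assay with surface-displayed partners. Pairs that bind mate more often; barcode pairs of the diploids are counted by sequencing. A regression on co-assayed BCL2-family reference pairs converts the normalised counts of each replicate to an apparent Kd. Each pool was mated in six replicate cultures.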

Changes read parent residue, position, new residue, counted from the first residue of the VL shown. This list holds designs with at most six substitutions. Scale: log10 of Kd in nM, estimated from mating counts; low values are strong binders. The mean shown is taken over the replicates in which the pair was detected. "no signal" marks a missing value. The strain was present, yet no cells mated with the target were sequenced in any replicate, which points to weak or no binding.

changes	group	mean log10 Kd (nM)	seen in
E32D/S33L/R34F/E61M	Ctrl	1.38	4 of 6
S25Q/V29F/R34V/W56D	GP_HC	-0.11	6 of 6
S25I/S28G/S33N/R34D	Ctrl	0.55	6 of 6
L30P/S33W	Ctrl	1.88	4 of 6
S26L/V29W/W56H/T59Q/S62Q	GP_HC	0.20	6 of 6
W56G/H98W	Ctrl	0.64	6 of 6
Q27G/V29L/R34T/K36Q/W56D	Ctrl	0.10	6 of 6
S25L/S38A/W56E/S62Q	GP_Gen	0.10	6 of 6
V29L/Y31T/E32D/R34F/Y97T/H98C	Ctrl	no signal	0 of 6
S25L/V29Q/S33W/K36M/W56N/S62M	GP_Gibbs	0.04	6 of 6
K36F/S62A	Ctrl	1.80	6 of 6
S25I/K36C	Ctrl	1.24	6 of 6
S25L/Y31M/W56D/E61L	GP_Gen	0.28	6 of 6
S25G/S28N/S58V	Ctrl	no signal	0 of 6
S25L/S26P/V29W/W56D	GP_Gen	-0.32	6 of 6
Q27I/V29Y/L30A/W56D	GP_HC	0.03	6 of 6
S26A/Q27Y/V29E/R34G/W56S/E61S	GP_Gibbs	0.21	6 of 6
Q27H/L30K/H98A/P101H	Ctrl	no signal	0 of 6
K24H/Q27G/L30A/W56N	GP_HC	0.58	6 of 6
V29W/W56G/S62N	GP_HC	-0.57	6 of 6
S25L/S26Q/V29W/W56N/T59K	GP_Gen	0.01	6 of 6
S25V/V29M/Y31G/K36F/W56H/S62N	GP_Gibbs	0.53	6 of 6
S25L/S26P/V29D/W56D	GP_Gen	-0.21	6 of 6
K24S/S25Y/A57G/E61N	Ctrl	0.88	6 of 6
S25V/S26P/Y31D	Ctrl	0.70	6 of 6
S25V/W56N/S103V	GP_Gen	-0.20	6 of 6
S25L/V29M/S38N/W56S	GP_Gen	-0.49	6 of 6
S25M/S26Q/S38N/W56H/S62D	GP_HC	-0.24	6 of 6
S25Y/S26Q/V29E/L30P/W56N/S62T	GP_Gibbs	-0.27	6 of 6
K24H/N35D/K36Y/W56T/E61T	Ctrl	2.60	4 of 6
S25L/Q27S	Ctrl	1.68	6 of 6
K24I/S38P/W56A	Ctrl	1.64	6 of 6
S26L/V29Q/L30E/W56H/E61L/S62D	GP_HC	-0.06	6 of 6
K24H/Q27P/W56N/S103H	GP_HC	1.46	5 of 6
S25V/S26R/V29T	GPLM_HC	0.79	6 of 6
S25F/S26N/W56T	Ctrl	0.61	6 of 6
S25L/S38N/W56N/S62E	GP_Gen	-0.52	6 of 6
S28A/N35Y/W56Y/S103D	Ctrl	no signal	0 of 6
S25M/V29W/Y31M/S33W/W56D/T59L	GP_HC	0.03	6 of 6
S25I/S28L/V29N/W56N/S58N	GP_Gibbs	0.30	6 of 6
K24H/S25L/W56H	GP_Gen	1.02	6 of 6
V29W/W56G/T59M/S62V	GP_HC	-0.30	6 of 6
R34Q/W56G/L102E/S103L	Ctrl	no signal	0 of 6
K24R/S25L/S33E/K36D/W56N/E61C	GP_Gibbs	0.18	6 of 6
W56Y/H98M	Ctrl	no signal	0 of 6
S25L/S26Q/V29T/L30K/K36Q	GP_HC	1.56	2 of 6
Q27A/L30E/S33D/W56H/S62Q	GP_Gibbs	0.68	6 of 6
V29E/S33Y	Ctrl	3.33	1 of 6

6 of these entries, quoted again:

| changes | group | mean log10 Kd (nM) | seen in |
|---|---|---|---|
| K24H/Q27P/W56N/S103H | GP_HC | 1.46 | 5 of 6 |
| S25L/S26Q/V29T/L30K/K36Q | GP_HC | 1.56 | 2 of 6 |
| V29W/W56G/T59M/S62V | GP_HC | -0.30 | 6 of 6 |
| Q27H/L30K/H98A/P101H | Ctrl | no signal | 0 of 6 |
| S25L/S26Q/V29W/W56N/T59K | GP_Gen | 0.01 | 6 of 6 |
| S25I/S28L/V29N/W56N/S58N | GP_Gibbs | 0.30 | 6 of 6 |

A sequence measured in both rounds can read differently, since the two assays cover different ranges. Of ten entries with the parent sequence, four were seen in most replicates (averages 0.34 to 2.37), three in one and three in none, so single entries are noisy. Three control strains display no target. For all light chain designs, 4% of the pairings with them gave a signal, with a median of 2.64 and one signal in twenty below 1.59, so weak values seen in few replicates may be background. In the paper, a design with two or fewer of six values counts as a poor binder.

Source: Li et al. 2023 (doi:10.1038/s41467-023-39022-2), MIT Lincoln Laboratory and A-Alpha Bio; data file from the FLAb repository.